Test results: PubChem BioAssay AID1242 (PCMD, 2008)
This is a selection; strong and weak results do not stand in their true shares. Calls of active or inactive are those of the source.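 The calls were made as follows: active = inhibition above 30.3% in the primary screen of four-compound pools, then above 30% when the compound was retested; inconclusive = passed the primary limit but could not be retested; inactive = the rest.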

assay: Candida albicans biofilm persister killing – 4-compound mixtures, primary screen (AID 1242);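 also: compounds exposed to preformed 24 h biofilms for 48 h; 0% = untreated biofilm control and 100% = clotrimazole plus chlorhexidine kill blank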; conditions: C. albicans biofilm persisters + clotrimazole, fluorescence viability; primary screen in compound mixtures of four per well; at 7.6 µM; stronger effect = higher value

| SMILES | inhibition |
| --- | --- |
| COc1ccccc1OP(C)(=O)Nc1ccccc1Br (stereo not given) | inactive: 12.8% |
| Nc1ccc([As](=O)(O)c2ccc(N)cc2)cc1 | inactive: -1.23% |
| CCN(/C(=N/P(=O)(N1CCOCC1)N1CCOCC1)N1CCOCC1)c1ccc(OC)cc1 | inactive: 20.7% |
| CN(C)C(=O)OCCc1n(C)cc[n+]1C | inactive: 10.6% |
| CN(C)C(=O)c1c([N+](=O)[O-])cc([N+](=O)[O-])cc1[N+](=O)[O-] | inactive: 10.6% |
| CC(C)=N/N=C(\N)N[N+](=O)[O-] | inactive: 14.9% |
| NC(=O)c1cc([N+](=O)[O-])cc([N+](=O)[O-])c1N | inactive: 5.53% |
| Cc1ccc(N/C(=N/P(=O)(N2CCOCC2)N2CCOCC2)N2CCOCC2)cc1 | inactive: 1.79% |
| COc1ccccc1OP(C)(=O)Nc1ccc(Br)cc1 (stereo not given) | inactive: 22% |
| Cc1ccc(OP(=O)(Nc2nccs2)Oc2ccc(C)cc2)cc1 | inactive: 30.6% |
| COc1ccccc1OP(=O)(Nc1ccc(C)cn1)Oc1ccccc1OC | inactive: -6.9% |
| CN1CCCC(OC(=O)C(c2ccccc2)c2ccccc2)C1 (stereo not given) | inactive: -9.95% |
| Clc1ccc(Cl)c(NC2=NCC(CBr)S2)c1 (stereo not given) | inactive: -0.69% |
| Nc1cc(N)c2nonc2c1[N+](=O)[O-] | inactive: 18.8% |
| O=[N+]([O-])c1cc([N+](=O)[O-])c(Nc2ccccn2)c([N+](=O)[O-])c1 | inactive: 32.1% |
| O=C(NC(Sc1ccncn1)C(Cl)(Cl)Cl)c1ccccc1 (stereo not given) | inactive: 13.5% |
| CC(=O)Nc1ccc([As](=O)(O)O)cc1 | inactive: 17.9% |
| O=C(O)c1ccccc1[As](=O)(O)O | inactive: -4.98% |
| O=P(Nc1nc2ccc(Cl)cc2s1)(c1ccccc1)c1ccccc1 | inactive: 18.5% |
| Cc1cc(C)cc(OP(C)(=O)Nc2cccc(C(F)(F)F)c2)c1 (stereo not given) | inactive: 20% |
| Cc1ccc(NP(=O)(Oc2ccccc2F)Oc2ccccc2F)nc1 | inactive: 24.3% |
| Cc1cc(SC(NC(=O)c2ccc(F)cc2)C(Cl)(Cl)Cl)ncn1 (stereo not given) | inactive: 12.7% |
| CCOP(=O)(Nc1ccccc1)OCC | inactive: 11.9% |
| COc1ccc(OP(C)(=O)Nc2ccccc2Br)cc1 (stereo not given) | inactive: 14.1% |
| CCN(N=Nc1nonc1N)c1nonc1N | inactive: 13.2% |

| SMILES | inhibition |
| --- | --- |
| CP(=O)(Nc1ccc(Cl)cc1Cl)Oc1ccccc1 (stereo not given) | inactive: 6.8% |
| CP(=O)(OCCOc1ccccc1)OCCOc1ccccc1 | inactive: 17.2% |
| Nc1cccc2ccc([As](=O)(O)O)cc12 | inactive: 12.9% |
| C[As](=O)(O)c1cccc(C(=O)O)c1 | inactive: 2.88% |
| O=[As](O)(c1ccc(O)cc1)c1ccccc1O | inactive: 8.2% |
| O=[N+]([O-])c1ccc2c(c1)C=Nc1ccccc1O2 | inactive: 6.32% |
| Cc1ccc2nc3c(c(C)c2c1)CC(C(Cl)Cl)S3 (stereo not given) | inactive: 6.07% |
| Cc1cccc(C)c1OP(C)(N)=O (stereo not given) | inactive: 12.4% |
| Cc1ccc(OP(=O)(Nc2ccc([N+](=O)[O-])cn2)Oc2ccc(C)cc2)cc1 | inactive: 20.2% |
| CC(C)(C)c1ccc(OP(C)(=O)Nc2ccc(SC(F)(F)F)cc2)cc1 (stereo not given) | inactive: 5.57% |
| CC(C)c1ccc(OP(=O)(Nc2ccccn2)Oc2ccccc2F)cc1 (stereo not given) | inactive: 26.9% |
| ClCCSc1nnc(-c2cccnc2)o1 | inactive: 19.8% |
| CCOC(=O)c1ccc(NP(C)(=O)Oc2ccccc2)cc1 (stereo not given) | inactive: 11.7% |
| Cc1cc(C)cc(OP(C)(N)=O)c1 (stereo not given) | inactive: 8.44% |
| O=[N+]([O-])c1cc([N+](=O)[O-])c(-c2ccn[nH]2)s1 | inactive: 13.6% |
| COc1ccccc1OP(C)(=O)Nc1cc(Cl)ccc1C (stereo not given) | inactive: 15% |
| CC(C)NC(=O)NP(=O)(Oc1ccccc1)Oc1ccccc1 | inactive: 10.5% |
| Cc1cc(=O)[nH]c(N[N+](=O)[O-])n1 | inactive: 18% |
| CCN(CC)CCCOC(=O)C(O)(c1ccccc1)c1ccccc1 | inactive: 24.3% |
| Cc1c2c(nc3ccccc13)SC(C(Cl)Cl)C2 (stereo not given) | inactive: 27.8% |
| COc1cc(I)ccc1[As](=O)(O)O | inactive: 8.68% |
| COc1ccc2nc(NP(=O)(c3ccccc3)c3ccccc3)sc2c1 | inactive: 14.9% |
| COc1ccc(N/C(=N/P(=O)(N2CCOCC2)N2CCOCC2)N2CCOCC2)cc1 | inactive: 9.25% |
| CP(=O)(Oc1ccccc1)OC(c1ccccc1)C(F)(F)F (stereo not given) | inactive: 7.72% |
| Cc1cccc(C)c1OP(C)(=O)Nc1ccc(SC(F)(F)F)cc1 (stereo not given) | inactive: 9.7% |
